What all share (type): in vivo
Series [1] relates to rat calvarial defect model. As to the kind of experiment: bone regeneration in rat calvarial defect model (ACS graft, micro-CT, qRT-PCR). To be noted: 3 weeks and 5 weeks, versus control. Here is the method:
First, a graft material having components corresponding to the respective conditions in Table 3 was used on laboratory rats as an animal model was. 8- week-old male rats were used to avoid errors due to hormonal changes. The breeding and management of the experimental animals were performed according to the criteria of the laboratory animal center of Seoul National University. […] At 3 and 5 weeks after the graft, newly formed bone tissues were examined. Bone-regeneration peptides and BMP-2 were used diluted in saline solution and the same volume of saline solution was used as a control. The doses used were: ACS (absorbable collagen sponge) (Kevin et al., Adv Drug Deliv Rev. 2012; 64: 1277-1291): 8 mm diameter; Peptide according to the invention: 100 μg/ACS disc; rhBMP-2: 2 μg/ACS disc […]
The micro-CT method was used for the analysis and the skulls were removed after sacrificing the rats at 3 and 5 weeks after surgery. […] Quantitative analysis of the newly formed regenerated bone was performed by measuring the volume of calcified tissue within the injured area to assess the degree of bone regeneration.
This is the quantitative real-time PCR results for each gene indicated in the figure, which were performed on cDNA synthesized from isolated RNA extracted from newly formed tissues at 3 weeks and 5 weeks. […]
In general terms: In qPCR the cycle at which signal appears reflects the starting amount.

Another series deals with femur muscle of mouse. As to the kind of experiment: ectopic ossification analysis, ACS graft in femur muscle, micro-CT. To be noted: BMP-2 2 μg left femur, peptide 600 μg right femur; n=10; eight weeks after operation. Here is the method: First, the present peptide or BMP-2 was adsorbed on ACS to prepare a graft material. ACS used was a disc of 5 mm in diameter and the present peptide and BMP-2 were used dissolved in saline solution. BMP-2 was used at the concentration of 2 μg and the present peptide was used at the concentration of 600 μg, which is 300 times that of BMP-2.
For animal experiments, the graft material containing BMP-2 was inserted into an incision made at the left femur muscle of a 6-week-old male mouse, and the graft containing the present peptide was inserted into an incision made at the right femur, which were performed after anesthetizing the mice followed by the sequential incision of the epidermis and fascia of the left and right femur. There was no significant difference in body weight before and after surgery and right before the sacrifice. Further there was no significant difference in the consumption of feed. Eight weeks after the operation, animals were euthanized and micro-CT analysis was performed to observe calcification (ectopic ossification) in the muscle. All 10 animals were used.

Series [2] concerns immunocompromised mice (NIH-bg-nu/nu-xid), xenograft bone graft model. The experiment in a line: xenograft bone regeneration experiment using mouse (Bio-Oss + hDPSC graft on the back). Conditions: peptide 10 μg, BMP-2 2 μg. Here is the method:
Using the graft materials having the components as in Table 2, each of the following four groups was grafted on the back of the immunodeficient mice as described below, and newly formed hard tissues were analyzed over 3 weeks and 6 weeks after the graft. The doses used were as follows: Geistlich Bio-Oss: 100 mg; hDPSC (human dental pulp stem cell): 5×10^6 cells; Peptide according to the invention: 10 μg; and BMP-2 (BD Science): 2 μg (Kevin et al., Adv Drug Deliv Rev. 2012; 64: 1277-1291).
For the animal experiments, 6-week-old immunocompromised mice (NIH-bg-nu/nu-xid, Harlan Sprague Dawley, Indianapolis, Ind., USA) were anesthetized and each of the composition as above with 0.5% fibrin gel was inserted in the incision made on the back of the mouse and the incisions were re-sutured. Peptides and BMP-2 were diluted in saline solution and the same volume of saline solution was used as a control. […]
The mice were sacrificed at 3 and 6 weeks after each composition as described above was administered, and the treated sites were separated and fixed in a 4% para-formaldehyde solution. […] Quantitative analysis of the newly formed hard tissues using H&E staining was performed as previously described from (Lee et al., Biomaterials 2011; 32: 9696-9706).

Regarding “BMP-2: bone inducing factor BMP-2 (BD Science), positive control”, the “osteogenesis-related gene expression in newly formed tissue (quantitative real-time PCR)” value in series [1] is listed as “Higher levels of osteogenesis-related gene expression”. Also, in the series with femur muscle of mouse, the “ectopic ossification (calcification in the muscle), micro-CT” value is listed as “distinct ectopic ossification in all the mice treated”. Also, in series [2] (3 weeks after graft), the “amount of hard tissue formed (H&E staining)” value was “increased compared to the negative control group”. Besides, in series [2] (6 weeks after graft), the “hard tissue development (H&E staining)” value is given as “significantly higher than that of the negative control group”.
